# Reference: patent US20050143628A1, “Methods for characterizing tissue or organ condition or status” (priority 2003, published 2005)
# Legend:
# [1] = test system: rat liver; settings: in vivo, 0.01 mg/kg/day
# [2] = test system: rat liver; settings: in vivo, 0.01 mg/kg/day; remark: listed apart in the source
substance,measurement,setting,value
TNF-alpha,Histopathology examination of liver,[1],no observable liver abnormality
same,Liver damage call by hepatotoxicity score versus individual clinical chemistry measures,[2],false negatives
